Data on one molecule can be found in ChEMBL document CHEMBL1681717, “Design and synthesis of a novel, orally active, brain penetrant, tri-substituted thiophene based JNK inhibitor” (Bioorg Med Chem Lett, 2011).

Amino acid sequences for entries named in this document (tags omitted). A change or cut given only in a name is not applied to a line headed by its entry.
UniProt P53779: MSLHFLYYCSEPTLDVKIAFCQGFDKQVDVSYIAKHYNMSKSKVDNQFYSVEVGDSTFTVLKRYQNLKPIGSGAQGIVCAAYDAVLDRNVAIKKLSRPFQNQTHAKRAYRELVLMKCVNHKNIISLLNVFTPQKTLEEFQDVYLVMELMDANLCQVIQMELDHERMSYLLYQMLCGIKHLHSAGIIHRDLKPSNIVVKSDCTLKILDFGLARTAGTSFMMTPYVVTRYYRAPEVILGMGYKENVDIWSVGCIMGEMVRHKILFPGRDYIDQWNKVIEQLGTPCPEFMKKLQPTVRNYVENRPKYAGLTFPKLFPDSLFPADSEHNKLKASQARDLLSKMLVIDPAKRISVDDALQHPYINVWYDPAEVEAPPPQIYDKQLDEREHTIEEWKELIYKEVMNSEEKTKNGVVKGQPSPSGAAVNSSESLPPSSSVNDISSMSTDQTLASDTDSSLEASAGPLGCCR

For this experiment, the target named is Mitogen-activated protein kinase 10 (Homo sapiens, UniProt P53779). Nature of the experiment: Inhibition of recombinant JNK3 after 60 mins by TR-FRET assay.

Turning to `Cc1csc(NC(=O)CN2C(=O)CCc3ccccc32)c1-c1ncn[nH]1`, the IC50 was found to be 25 nM.
